Literature values in patent US11321826B2, “High throughput method for accurate prediction of compound-induced liver injury” (AGENCY FOR SCIENCE, TECHNOLOGY AND RESEARCH, priority 2016, dated 2022).

Test system: human primary renal proximal tubular cells (HPTC) or HPTC-like cells
Conditions: cited from earlier work

C[C@H]1O[C@H](O[C@H]2[C@H](O)[C@@H](O)[C@@H](O[C@H]3[C@H](O)[C@@H](O)C(O)O[C@@H]3CO)O[C@@H]2CO)[C@H](O)[C@@H](O)[C@@H]1N[C@H]1C=C(CO)[C@@H](O)[C@H](O)[C@H]1O (stereo partly shown) [acarbose]
toxicity for the human renal proximal tubular cells: not toxic
